In publication doi:10.1101/2023.10.07.561329 (bioRxiv, 2023):

Target: T1, KLHL22^1-178 (Homo sapiens, UniProt Q53GT1 1-178)
T1 sequence: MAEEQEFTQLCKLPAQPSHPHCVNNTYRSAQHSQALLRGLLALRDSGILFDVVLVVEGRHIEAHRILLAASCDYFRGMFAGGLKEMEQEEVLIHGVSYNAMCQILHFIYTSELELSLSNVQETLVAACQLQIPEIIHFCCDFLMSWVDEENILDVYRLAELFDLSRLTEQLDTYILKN
Test: SEC-MALS

B1: CUL3^WT-RBX1 (complex)
chain 1: not shown
chain 2: not shown
**Q.** B1 was tested. Which “stoichiometry N” value did it give?
**A.** 2 CUL3-RBX1 per KLHL22^1-178 dimer
